The values below come from ChEMBL document CHEMBL1136740, “New active series of growth hormone secretagogues” (J Med Chem, 2003).

One assay relates to Rattus norvegicus. Description: Ratio of GH release stimulated by 300 ug/kg of compound to that of GH release stimulated by 300 ug/kg of hexarelin in infant rat (sc injection). In kind it is functional. An outline of the steps: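 Male 10-day-old Sprague-Dawley pups, about 25 g, eight per group. Dosed sc at 300 µg/kg, with solvent as DMSO at final 1:300 dilution. Killed by decapitation 15 min later; trunk-blood plasma GH measured by RIA against the NIDDK rat standard, in ng/mL. Response compared with hexarelin at the same dose.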

Assay [1] is described as follows: Stimulating GH secretion in dogs after oral administration at dose of 1 mg/kg.

`CCNC(=O)N[C@@H](Cc1c[nH]c2ccccc12)NC(=O)[C@@H](Cc1c[nH]c2ccccc12)NC(=O)C(C)(C)N`: in the assay on Rattus norvegicus, the Ratio came to 1.4. The compound also gave a GH peak in assay [1] of 0.4 µg/L.
Taken in the same sequence, the figures for `CC(C)(N)C(=O)N[C@H](Cc1c[nH]c2ccccc12)C(=O)N[C@H](Cc1c[nH]c2ccccc12)NC(=O)C1CCCCN1` (stereo partly specified) were 1.34 and 0.5 µg/L.
The like results for `CNC(C)(C)C(=O)N[C@H](Cc1c[nH]c2ccccc12)C(=O)N(C)[C@H](Cc1c[nH]c2ccccc12)NC(C)=O` were, in that order, 1.45 and 5.5 µg/L.
